Experimental data reported in patent US11814447B2, “Peptide ligands for binding to EphA2” (BICYCLERD LIMITED, priority 2018, dated 2023).
Like-named read-outs stand apart in the source and are kept apart here.

Chains of the proteins cited; added tags and fusions are not shown. Residues count along the entry.
UniProt P29317, 24-537 limits assumed: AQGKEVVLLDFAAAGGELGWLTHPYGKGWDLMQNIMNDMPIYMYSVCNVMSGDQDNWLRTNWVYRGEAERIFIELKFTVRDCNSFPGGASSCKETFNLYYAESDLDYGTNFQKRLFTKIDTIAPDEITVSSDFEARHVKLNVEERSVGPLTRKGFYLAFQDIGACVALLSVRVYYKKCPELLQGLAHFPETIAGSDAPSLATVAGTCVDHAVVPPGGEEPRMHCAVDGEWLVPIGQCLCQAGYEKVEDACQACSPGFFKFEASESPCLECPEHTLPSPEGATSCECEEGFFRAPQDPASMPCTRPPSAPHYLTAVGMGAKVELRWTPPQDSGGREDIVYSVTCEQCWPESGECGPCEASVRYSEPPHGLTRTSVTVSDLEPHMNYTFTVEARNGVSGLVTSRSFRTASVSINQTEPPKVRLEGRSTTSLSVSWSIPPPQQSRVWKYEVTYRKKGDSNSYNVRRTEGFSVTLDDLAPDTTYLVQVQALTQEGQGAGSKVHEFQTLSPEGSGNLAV
UniProt Q03145, 26-538 limits assumed: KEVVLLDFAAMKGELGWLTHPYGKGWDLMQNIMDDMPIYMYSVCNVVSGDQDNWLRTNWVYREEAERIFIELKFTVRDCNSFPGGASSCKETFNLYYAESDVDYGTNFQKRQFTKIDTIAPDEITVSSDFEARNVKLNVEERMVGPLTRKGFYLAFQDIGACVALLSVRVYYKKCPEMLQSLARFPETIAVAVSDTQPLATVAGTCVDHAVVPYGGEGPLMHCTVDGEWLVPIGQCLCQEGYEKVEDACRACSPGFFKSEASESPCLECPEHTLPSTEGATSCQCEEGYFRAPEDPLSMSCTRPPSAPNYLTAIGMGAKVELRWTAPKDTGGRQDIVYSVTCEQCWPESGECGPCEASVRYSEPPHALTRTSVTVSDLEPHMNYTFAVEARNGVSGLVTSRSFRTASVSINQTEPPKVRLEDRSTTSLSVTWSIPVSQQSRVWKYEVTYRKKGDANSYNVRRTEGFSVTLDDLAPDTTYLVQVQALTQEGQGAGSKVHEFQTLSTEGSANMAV

Tests used:
Human EphA2 [1] = target: T1, Human EphA2 (Homo sapiens, UniProt P29317)
Mouse EphA2 = target: T2, Mouse EphA2 (Mus musculus, UniProt Q03145); assay: Fluorescence polarisation direct binding assay; conditions: Table 7; read-out: KD, nM ± 95% CI Mouse EphA2
T2 construct: EphA2 (Ecto); Fc fusion (R&D 639-A2) OR C-terminal polyHis (Sino Biological 50586-M08H); purchased R&D Systems or Sino Biological 639-A2 or 50586-M08H

Human EphA2 [2] = target: T1, Human EphA2; assay: Fluorescence polarisation direct binding assay; parameters: EphA2 (Ecto); polyHis (C); conditions: read-out: KD, nM ± 95% CI Human EphA2
[3] = read-out: measured affinity (Ki) to EphA2, Examples 1-6 and Reference Examples 1-2, species and fluorescent peptide not stated

Substance	Kd (Mouse EphA2) [nM]	Kd (Human EphA2 [2]; Table 7) [nM]	further results
(β-Ala)-Sar10-ACWAPFWCAVNRPGC [Compound 303]	–	–	Ki (Human EphA2 [1]; read-out: Ki, nM ± 95% CI Human EphA2 Fluorescent peptide Compound 18, Table 9, Ala scan peptides, fluorescent peptide Compound 18): > 1000 nM
[B-Ala][Sar]10H[dD]VP [Dap][Aib][Mal]G[Aib]F [1Nal]CP [tBuGly]N[HArg]P [dD][Dap] [Example 6]	–	–	Ki (Human EphA2 [1]; [3]): 17 nM
AF488-(β-Ala)-Sar10-H(D-Asp)VP-C(Aib)(1Nal)G(Aib)F(1Nal)CP(tBuGly)NR(Aib)(D-Asp)C [Compound 141]	6.5 ± 0.63	2.65 ± 0.64	–
[B-Ala][Sar]10H[dD]VP[Dap][Aib][Mal]G[Aib]F[1Nal][Dap]P[tBuGly]N[HArg]P[dD]C [Example 4]	–	–	Ki (Human EphA2 [1]; [3]): 640 nM
[B-Ala][Sar]10H[dD]VPC[Aib][Mal]G[Aib]F[1Nal][Dap]P[tBuGly]N[HArg]P[dD][Dap] [Example 5]	–	–	Ki (Human EphA2 [1]; [3]): 425 nM
AF488-(β-Ala)-Sar10-H(D-Asp)VP-C(Aib)(1Nal)G(Aib)F(1Nal)CP(tBuGly)N(HArg)P(D-Asp)C [Compound 140]	4.55 ± 1.04	2.05 ± 0.62	–
AF488-(β-Ala)-Sar10-H(D-Asp)(C5g)P-CP(1Nal)G(Aib)F(1Nal)CP(tBuGly)N(HArg)P(D-Asp)C [Compound 147]	3.44 ± 1.31	1.07 ± 0.9	–
AF488-(β-Ala)-Sar10-H(D-Asp)VP-CP(1Nal)G(Aib)F(1Nal)CP(tBuGly)NR(Aib)GC [Compound 144]	2.56	1.04	–
[Ac][B-Ala][Sar]10H[dD]VP[Dap]PWGPFWCPVNRPG[Dap] [Example 3]	–	–	Ki (Human EphA2 [1]; [3]): 31.5 nM
AF488-(β-Ala)-Sar10-H(D-Asp)VPCPWGPFWCPVNRPGCA [Compound 139]	0.8 ± 0.54	0.31 ± 0.18	–
AF488-(β-Ala)-Sar10-H(D-Asp)VPCP(1Nal)A(Aib)F(1Nal)CA(tBuGly)NR(Aib)(D-Asp)C [Compound 308]	–	–	Kd (Human EphA2 [2]; Table 10, Ala scan peptides): > 2000 nM
Sar2-ACP(1Nal)G(Aib)FWCP(tBuGly)NR(Aib)GC [Compound 137]	–	–	Ki (Human EphA2 [1]; read-out: Ki, nM ± 95% CI Human EphA2 Fluorescent Peptide Compound 18, Table 6, fluorescent peptide Compound 18): 20 nM; Ki (Human EphA2 [1]; read-out: Ki, nM ± 95% CI Human EphA2 Fluorescent Peptide Compound 66, Table 6, fluorescent peptide Compound 66): 18 nM
AF488-(β-Ala)-Sar10-ACPWAPFWCAVNRPGC [Compound 307]	–	–	Kd (Human EphA2 [2]; Table 10, Ala scan peptides): > 1000 nM
AF488-(β-Ala)-Sar10-H(D-Asp)VP-CP(1Nal)G(Aib)F(1Nal)CP(tBuGly)NR(Aib)(D-Asp)C [Compound 145]	3.8 ± 0.55	2.17 ± 2.08	–
AF488-(β-Ala)-Sar10-H(D-Asp)VP-CP(1Nal)G(Aib)F(1Nal)CP(tBuGly)N(HArg)P(D-Asp)C [Compound 143]	4.69 ± 4.15	1.4 ± 1.46	–
AF488-(β-Ala)-Sar10-H(D-Asp)(C5g)P-C(Aib)(1Nal)G(Aib)F(1Nal)CP(tBuGly)NR(Aib)(D-Asp)C [Compound 146]	–	2.19	–
[Ac][B-Ala][Sar]10H[dD]VPCPWGPFW[Dap]PVNRPG[Dap] [Example 2]	–	–	Ki (Human EphA2 [1]; [3]): 604 nM
